This assay deals with Dimer of Gag-Pol polyprotein [489-587] (Human immunodeficiency virus 1, UniProt P12497). Briefly: ASSAY_NAME: Protease Inhibition Assay DESCRIPTION: Enzymatic activity was measured by following cleavage of the substrate H-Lys-Ala-Arg-Val-Leu-pNph-Glu-Ala-Nle-NH2. Products of the cleavage reaction were quantified by HPLC detection.

pKi: −log10 of the molar value.

Compound `CC(C)C1NC(=O)[C@@H](C(O)[C@H](Cc2ccccc2)NC(=O)OC(C)(C)C)NCc2cccc(c2)OCCCCNC1=O` (stereo partly drawn) [tert-butyl N-[(1S,2S)-1-[(9R,12R)-8,11-dioxo-9-(propan-2-yl)-2-oxa-7,10,13-triazabicyclo[13.3.1]nonadeca-1(18),15(19),16-trien-12-yl]-1-hydroxy-3-phenylpropan-2-yl]carbamate] gave a pKi of 7.79.

In turn, `CC(C)C1NC(=O)[C@@H](C(O)[C@H](Cc2ccccc2)NC(=O)OC(C)(C)C)NCc2ccc(cc2)OCCOCCOCCNC1=O` (stereo partly drawn) [tert-butyl N-[(1S,2S)-1-[(13R,16R)-12,15-dioxo-13-(propan-2-yl)-2,5,8-trioxa-11,14,17-triazabicyclo[17.2.2]tricosa-1(21),19,22-trien-16-yl]-1-hydroxy-3-phenylpropan-2-yl]carbamate] gave a pKi of 7.90.

The values above are taken from BindingDB's records for doi:10.1021/jm950641i (1996).
